The values below come from PMC9610465, “The Inhibition of α-Glucosidase, α-Amylase and Protein Glycation by Phenolic Extracts of Cotoneaster bullatus, Cotoneaster zabelii, and Cotoneaster integerrimus Leaves and Fruits: Focus on Anti-Hyperglycemic Activity and Kinetic Parameters” (Molecules, 2022).

The assay deals with T1, Porcine pancreatic α-amylase (Sus scrofa, UniProt P00690).
T1 sequence (P00690 16-511): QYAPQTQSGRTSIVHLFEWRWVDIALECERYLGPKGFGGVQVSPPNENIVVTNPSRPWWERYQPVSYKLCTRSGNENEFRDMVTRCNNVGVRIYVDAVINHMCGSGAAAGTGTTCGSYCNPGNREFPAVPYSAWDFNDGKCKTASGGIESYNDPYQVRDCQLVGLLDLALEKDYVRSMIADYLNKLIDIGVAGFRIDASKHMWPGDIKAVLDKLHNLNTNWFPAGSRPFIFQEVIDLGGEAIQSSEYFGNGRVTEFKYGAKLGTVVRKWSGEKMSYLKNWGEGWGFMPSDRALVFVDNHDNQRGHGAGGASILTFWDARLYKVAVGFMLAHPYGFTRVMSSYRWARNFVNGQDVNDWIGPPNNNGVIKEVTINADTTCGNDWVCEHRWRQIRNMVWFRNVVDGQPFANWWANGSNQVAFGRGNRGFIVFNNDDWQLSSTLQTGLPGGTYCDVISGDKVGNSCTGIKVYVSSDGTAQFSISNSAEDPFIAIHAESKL
Kind of assay: Kinetic parameters of α-amylase inhibition (Lineweaver–Burk, Michaelis–Menten). Conditions: for Type Inhibition, α-amylase: Lineweaver–Burk plot; for Vmax: α-amylase.

Regarding `C[C@H]1O[C@H](O[C@H]2[C@H](O)[C@@H](O)[C@@H](O[C@H]3[C@H](O)[C@@H](O)C(O)O[C@@H]3CO)O[C@@H]2CO)[C@H](O)[C@@H](O)[C@@H]1N[C@H]1C=C(CO)[C@@H](O)[C@H](O)[C@H]1O` (some centres unmarked) [AR, acarbose], the “Type Inhibition, α-amylase” value was “Mixed”. Further, the “Type Inhibition, α-amylase” value (listed as acarbose) is reported as “mixed type of inhibition”. In addition, the Vmax (inhibitor 3.0 µg/mL) is 0.321 ± 0.009 ^C mM/min. For the setting “inhibitor 8.0 µg/mL”, the Vmax is given as 0.241 ± 0.015 ^B mM/min. Also, the Vmax (inhibitor 10.0 µg/mL) is on record as 0.189 ± 0.009 ^A mM/min.
